The chains behind the UniProt entries cited, without tags or fusion partners.
UniProt P0DMS8, whole entry: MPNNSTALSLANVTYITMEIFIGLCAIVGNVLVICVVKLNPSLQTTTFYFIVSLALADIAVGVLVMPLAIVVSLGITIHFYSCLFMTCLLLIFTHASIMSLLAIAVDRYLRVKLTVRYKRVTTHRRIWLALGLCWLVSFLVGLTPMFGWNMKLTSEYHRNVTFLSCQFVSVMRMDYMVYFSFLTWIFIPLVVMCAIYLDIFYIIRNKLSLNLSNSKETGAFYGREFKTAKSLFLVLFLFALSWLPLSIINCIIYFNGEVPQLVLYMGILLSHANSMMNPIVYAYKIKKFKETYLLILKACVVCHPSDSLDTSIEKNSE

According to US8518957B2, “Methanocarba adenosine derivatives, pharmaceutical compositions, and method of reducing intraocular pressure” (The United States of America, as represented by the …, priority 2009, dated 2013):

Target: T1, human A3AR (Homo sapiens, UniProt P0DMS8)
T1 construct: expressed in transfected cells
Experiment: Cyclic AMP accumulation assay: inhibition of forskolin-stimulated cyclic AMP production in AR-transfected CHO cells
Format: cell-based
Conditions: for % Inhibition of cAMP formation at hA3 AR: at 10 μM, in comparison to the maximal effect of full agonist NECA at 10 μM; for % Inhibition of cAMP accumulation at the hA3AR: concentration 1.0 μM, in comparison to full agonist NECA at 1 μM

## CNC(=O)[C@H]1O[C@@H](n2cnc3c(NCc4cccc(I)c4)nc(Cl)nc32)[C@H](O)[C@@H]1O [Cl-IB-MECA, 2-chloro-N^6-(3-iodobenzyl)-5′-N-methylcarboxamidoadenosine, reference compound]
  % Inhibition of cAMP formation at hA3 AR: 97%
  % Inhibition of cAMP accumulation at the hA3AR: 97%

## CCNC(=O)[C@H]1O[C@@H](n2cnc3c(N)ncnc32)[C@H](O)[C@@H]1O [NECA, 5′-N-ethylcarboxamidoadenosine, reference compound]
  % Inhibition of cAMP formation at hA3 AR: 100%
  % Inhibition of cAMP accumulation at the hA3AR: 100%
